# Laboratory results from PubChem BioAssay AID488922 (Johns Hopkins Ion Channel Center, 2010).
# Sequences of proteins named here, by UniProt entry; tags and fusion partners are left off.
# UniProt Q9NPC2, whole entry: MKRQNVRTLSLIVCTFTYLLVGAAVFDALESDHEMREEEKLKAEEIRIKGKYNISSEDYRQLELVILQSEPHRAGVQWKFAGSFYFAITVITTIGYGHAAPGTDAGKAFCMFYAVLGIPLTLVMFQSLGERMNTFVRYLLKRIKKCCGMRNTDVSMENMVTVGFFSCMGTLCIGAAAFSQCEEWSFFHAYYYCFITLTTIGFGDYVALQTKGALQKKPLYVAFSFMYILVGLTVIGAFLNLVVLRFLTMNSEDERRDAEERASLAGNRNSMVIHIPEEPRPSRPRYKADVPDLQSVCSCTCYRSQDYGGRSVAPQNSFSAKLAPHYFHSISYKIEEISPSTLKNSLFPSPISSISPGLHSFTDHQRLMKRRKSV
# This is a selection; strong and weak results do not stand in their true shares. The source made the active and inactive calls.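 Rule for the calls: active = ratio B-score over 3 SD below the library mean, with starting fluorescence within 5 SD of its mean; inactive = the rest, inconclusive results apart.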
# Biological target: Potassium channel subfamily K member 9 (Homo sapiens) (UniProt Q9NPC2)
# Assay: KCNK9 potassium channel inhibitors, primary screen, HEK293 cells, thallium flux (AID 488922);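 for B-score: negative B-score means less thallium flux so channel inhibition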
# Conditions: HEK293 KCNK9, FluxOR thallium flux fluorescence, at 10 µM; active compounds read low
SMILES,outcome,B-score
N#Cc1ccc(C(=O)NCC2(N3CCCCC3)CCCCC2)cc1,inactive,
CC(C)(C)OC(=O)N1CCC(N(C(=O)c2ccccc2)c2ccc(Cl)cc2)CC1,,active: -23.1
CN(C)C1(CNC(=O)c2cccc(C#N)c2)CCCCC1,inactive,
c1ccc(CN2CCC(Nc3ccccc3)CC2)cc1,inactive,
CCCN1CCC(Nc2cc(OC)cc(OC)c2)CC1,inactive,
COc1ccc(C(=O)NCC2(N3CCOCC3)CCCCC2)cc1OC,inactive,
O=C(OC1CN2CCC1CC2)C1c2ccccc2C=Cc2ccccc21 (centres undefined),inactive,
CCc1cc(C(=O)NCC2(N3CCCCC3)CCCCC2)sc1C,inactive,
CCOC(=O)N1CCC(Nc2ccc(C)cc2)CC1,inactive,
N/C(=N\O)c1c(N)no[n+]1[O-],inactive,
CC(C)(C)OC(=O)N1CCC(Nc2ccccc2)CC1,inactive,
O=C(O)C1(Nc2ccccc2)CCN(Cc2ccccc2)CC1,inactive,
CCCOc1ccc(C(=O)NCC2(N(C)C)CCCCC2)cc1,inactive,
CCOc1ncccc1C(=O)NCC1(N2CCOCC2)CCCCC1,inactive,
CN1CCC(Nc2ccc(F)c(Cl)c2)CC1,inactive,
CN1CCC(Nc2ccc(Cl)cc2)CC1,inactive,
CCCOc1ccc(C)cc1CN(CCCl)CCCl,inactive,
COc1cc(OC)cc(C(=O)NCC2(N3CCOCC3)CCCCC2)c1,inactive,
COc1cccc(C(=O)N(c2cc(C)cc(C)c2)C2CCN(C(=O)OC(C)(C)C)CC2)c1,,active: -15.8
CCC(CO)(C(=O)OC1CN2CCC1CC2)c1ccccc1 (centres undefined),inactive,

SMILES,outcome,B-score
Cc1ccc(C(=O)NCC2(N3CCCCC3)CCCCC2)o1,inactive,
Fc1ccccc1NC1CCN(Cc2ccccc2)CC1,inactive,
COc1cc(OC)cc(C(=O)NCC2(N3CCCCC3)CCCCC2)c1,inactive,
CN(C)c1ccc(C(=O)NCC2(N3CCCCC3)CCCCC2)cc1,inactive,
CCN1CCC(Nc2cccc(F)c2)CC1,inactive,
O=C(NCC1(N2CCCCC2)CCCCC1)c1ccc(F)cc1,inactive,
COc1ccc(NC2CCN(CCc3ccccc3)CC2)c(OC)c1,inactive,
CCOC(=O)N1CCC(Nc2ccc(F)cc2)CC1,inactive,
CCOc1ccc(C)cc1CN(CCCl)CCCl,inactive,
COc1cc(C(=O)NCC2(N(C)C)CCCCC2)ccc1OC(F)F,inactive,
CCOC(=O)N1CCC(Nc2cccc(C)c2)CC1,inactive,
Cc1ccc(OCC(C)C)c(CN(CCCl)CCCl)c1,inactive,
CSc1ccccc1C(=O)NCC1(N2CCCCC2)CCCCC1,inactive,
COc1ccc(C(=O)NCC2(N3CCCCC3)CCCCC2)cc1,inactive,
COc1ccc(C(=O)NCC2(N3CCCCC3)CCCCC2)c(OC)c1OC,inactive,
CC(C)(C)OC(=O)N1CCC(N(C(=O)c2ccccc2)c2ccc(F)cc2)CC1,,active: -18.1
O=C(NCC1(N2CCCCC2)CCCCC1)c1ccc(=O)[nH]c1,inactive,
O=C(NCC1(N2CCCCC2)CCCCC1)c1cccs1,inactive,
O=C(OC1CN2CCC1CC2)C1c2ccccc2Oc2ccccc21 (centres undefined),inactive,
N#CC1(Nc2ccccc2)CCN(Cc2ccccc2)CC1,inactive,

SMILES,outcome,B-score
CCOC(=O)N1CCC(Nc2ccc(OC)cc2)CC1,inactive,
O=C(NCC1(N2CCCCC2)CCCCC1)c1ccc(Cl)nc1,inactive,
Cc1cc(C)cc(N(C(=O)c2ccccc2)C2CCN(C(=O)OC(C)(C)C)CC2)c1,,active: -12.4
O=C(NCC1(N2CCOCC2)CCCCC1)c1cc2ccccc2o1,inactive,
COc1cc(OC)c(C(=O)NCC2(N(C)C)CCCCC2)cc1OC,inactive,
CC(C)c1ccc(NC2CCN(C(=O)OC(C)(C)C)CC2)cc1,inactive,
COc1ccc(CN(CCCl)CCCl)cc1Cl,inactive,
CN(C)c1cccc(C(=O)NCC2(N3CCCCC3)CCCCC2)c1,inactive,
CCCOc1ccc(C(=O)NCC2(N(C)C)CCCCC2)cc1OC,inactive,
CN1CCC(Nc2cccc(F)c2)CC1,inactive,
CCN1CCC(Nc2ccc(Cl)cc2)CC1,inactive,
N#CC1(Nc2ccccc2)CCN(CCc2ccccc2)CC1,inactive,
O=C(NCC1(N2CCCCC2)CCCCC1)c1cccc([N+](=O)[O-])c1,inactive,
O=C(NCC1(N2CCCCC2)CCCCC1)c1ccc(OC(F)F)cc1,inactive,
COc1cc(C(=O)NCC2(N3CCCCC3)CCCCC2)ccc1OC(F)F,inactive,
O=C(NCC1(N2CCOCC2)CCCCC1)c1cc(=O)[nH]c2ccccc12,inactive,
CN1CCN(CCOC(=O)C(O)(c2ccccc2)c2ccccc2)CC1,inactive,
COc1ccc(NC2CCN(C(=O)OC(C)(C)C)CC2)cc1,inactive,
O=C(NCC1(N2CCCCC2)CCCCC1)c1cccc(C(F)(F)F)c1,inactive,
